Experimental data as given in US10150762B2, “Trifluoromethyl alcohols as modulators of RORγt” (Janssen Pharmaceutica NV, priority 2014, dated 2018).

Amino acid sequences for entries named in this document (tags omitted). Chains listed by the source or under a name are the forms on record and can include a tag or linker.
UniProt P51449, other isoform, or with tags, fused parts or gaps: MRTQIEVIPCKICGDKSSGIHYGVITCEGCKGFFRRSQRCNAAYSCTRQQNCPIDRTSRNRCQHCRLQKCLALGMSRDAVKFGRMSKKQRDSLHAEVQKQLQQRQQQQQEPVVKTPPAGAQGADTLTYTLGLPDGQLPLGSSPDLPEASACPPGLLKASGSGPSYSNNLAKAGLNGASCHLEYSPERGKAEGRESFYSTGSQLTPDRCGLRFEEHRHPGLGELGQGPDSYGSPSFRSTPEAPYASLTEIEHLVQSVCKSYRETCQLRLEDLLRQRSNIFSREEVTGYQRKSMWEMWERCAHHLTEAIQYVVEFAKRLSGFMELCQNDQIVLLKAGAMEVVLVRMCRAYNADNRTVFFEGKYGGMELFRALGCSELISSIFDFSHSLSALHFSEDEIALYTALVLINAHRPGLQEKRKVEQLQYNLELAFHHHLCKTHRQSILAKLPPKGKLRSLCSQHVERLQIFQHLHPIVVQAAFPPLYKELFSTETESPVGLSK

Columns and labels:
full-length human RORγt [1] = biological target: T1, full-length human RORγt (Homo sapiens (Human), UniProt P51449); assay: cell-based; details: read-out: RORγt (FL) Reporter Assay B or C, % inhibition @ 6 μM
full-length human RORγt [2] = biological target: T1, full-length human RORγt; details: * 3 μM compound concentration

SMILES: Cc1cc(C(O)(C(F)(F)F)C(F)(F)F)ccc1-c1sc(C(=O)NCC(C)(C)O)nc1C(=O)N1CCC[C@@H]1C [Example 19, (S)-5-(4-(1,1,1,3,3,3-Hexafluoro-2-hydroxypropan-2-yl)-2-methylphenyl)-N-(2-hydroxy-2-methylpropyl)-4-(2-methylpyrrolidine-1-carbonyl)thiazole-2-carboxamide]
- inhibition at 6 µM (full-length human RORγt [1]): 107%

SMILES: Cc1cc(C(O)(C(F)(F)F)C(F)(F)F)ccc1-c1sc(C(=O)NCC(C)(C)O)nc1C(=O)N1CCC[C@H]1C [Example 19/1, (R)-5-(4-(1,1,1,3,3,3-Hexafluoro-2-hydroxypropan-2-yl)-2-methylphenyl)-N-(2-hydroxy-2-methylpropyl)-4-(2-methylpyrrolidine-1-carbonyl)thiazole-2-carboxamide]
- RORγt (FL) Reporter Assay B or C, % inhibition (full-length human RORγt [2]): 79* %

Marks after values point to notes of the source that are not given here.
